From ChEMBL document CHEMBL1134652, “N-Methyl scan of somatostatin octapeptide agonists produces interesting effects on receptor subtype specificity” (J Med Chem, 2001)

Protein sequences, listed by entry. Tags and fused reporters are not part of them. Lines headed by an entry give the natural chain unless they say otherwise; changes in a name come on top.
UniProt P32745: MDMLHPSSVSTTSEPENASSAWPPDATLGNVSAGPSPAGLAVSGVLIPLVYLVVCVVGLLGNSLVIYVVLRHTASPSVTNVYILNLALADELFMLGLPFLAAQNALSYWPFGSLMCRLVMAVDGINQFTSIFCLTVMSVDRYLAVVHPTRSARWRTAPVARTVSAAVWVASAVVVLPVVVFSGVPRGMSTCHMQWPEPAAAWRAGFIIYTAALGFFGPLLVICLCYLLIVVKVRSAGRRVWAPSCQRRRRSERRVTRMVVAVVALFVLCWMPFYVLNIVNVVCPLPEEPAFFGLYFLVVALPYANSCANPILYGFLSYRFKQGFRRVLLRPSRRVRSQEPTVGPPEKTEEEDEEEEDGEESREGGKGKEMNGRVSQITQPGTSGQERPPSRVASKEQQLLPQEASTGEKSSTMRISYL

Species on record: Rattus norvegicus
Test: in vitro Agonist activity (inhibition of growth hormone release) on cultured rat pituitary cells
Format: functional, cell-based
Details: Pituitary gland cell
Method in brief: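 Anterior pituitary cells from adult male rats were dispersed with trypsin/DNase and cultured 4–5 days at about 200 000 cells/well. Each dose was run in triplicate wells in medium 199 with 1% BSA and 1 nM GHRH-(1–29)NH2, for 3 h at 37 °C. GH in the medium was measured by double-antibody RIA.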

Structure (SMILES) | IC50
C[C@@H](O)[C@H](NC(=O)[C@@H]1CSSC[C@H](NC(=O)[C@H](N)Cc2ccccc2)C(=O)N(C)[C@@H](Cc2ccccc2)C(=O)N[C@H](Cc2c[nH]c3ccccc23)C(=O)N[C@@H](CCCCN)C(=O)N[C@@H]([C@@H](C)O)C(=O)N1)C(N)=O | 7.29 nM
C[C@@H](O)[C@H](NC(=O)[C@@H]1CSSC[C@H](NC(=O)[C@@H](N)Cc2ccc(O)cc2)C(=O)N[C@@H](Cc2ccccc2)C(=O)N[C@H](Cc2c[nH]c3ccccc23)C(=O)N[C@@H](CCCCN)C(=O)N[C@@H]([C@@H](C)O)C(=O)N1C)C(N)=O | 41.2 nM
C[C@@H](O)[C@H](NC(=O)[C@@H]1CSSC[C@H](NC(=O)[C@@H](N)Cc2ccc(O)cc2)C(=O)N(C)[C@@H](Cc2ccccc2)C(=O)N[C@H](Cc2c[nH]c3ccccc23)C(=O)N[C@@H](CCCCN)C(=O)N[C@@H]([C@@H](C)O)C(=O)N1)C(N)=O | 103 nM
C[C@@H](O)[C@H](NC(=O)[C@@H]1CSSC[C@H](N(C)C(=O)[C@@H](N)Cc2ccc(O)cc2)C(=O)N[C@@H](Cc2ccccc2)C(=O)N[C@H](Cc2c[nH]c3ccccc23)C(=O)N[C@@H](CCCCN)C(=O)N[C@@H]([C@@H](C)O)C(=O)N1)C(N)=O | 11.9 nM
C[C@@H](O)[C@H](NC(=O)[C@@H]1CSSC[C@H](NC(=O)[C@H](N)Cc2ccccc2)C(=O)N[C@@H](Cc2ccccc2)C(=O)N(C)[C@H](Cc2c[nH]c3ccccc23)C(=O)N[C@@H](CCCCN)C(=O)N[C@@H]([C@@H](C)O)C(=O)N1)C(N)=O | 18.7 nM
CN[C@H](Cc1ccccc1)C(=O)N[C@H]1CSSC[C@@H](C(=O)N[C@H](C(N)=O)[C@@H](C)O)NC(=O)[C@H]([C@@H](C)O)NC(=O)[C@H](CCCCN)NC(=O)[C@@H](Cc2c[nH]c3ccccc23)NC(=O)[C@H](Cc2ccccc2)NC1=O | 0.32 nM
C[C@@H](O)[C@H](NC(=O)[C@@H]1CSSC[C@H](NC(=O)[C@H](N)Cc2ccccc2)C(=O)N[C@@H](Cc2ccccc2)C(=O)N[C@H](Cc2c[nH]c3ccccc23)C(=O)N(C)[C@@H](CCCCN)C(=O)N[C@@H]([C@@H](C)O)C(=O)N1)C(N)=O | 0.74 nM
CN[C@@H](Cc1ccc(O)cc1)C(=O)N[C@H]1CSSC[C@@H](C(=O)N[C@H](C(N)=O)[C@@H](C)O)NC(=O)[C@H]([C@@H](C)O)NC(=O)[C@H](CCCCN)NC(=O)[C@@H](Cc2c[nH]c3ccccc23)NC(=O)[C@H](Cc2ccccc2)NC1=O | 11.3 nM

What follows are compounds tested against Somatostatin receptor type 3 (Homo sapiens, UniProt P32745) (assay: Binding affinity was determined on cloned human somatostatin receptor-1 (hsst3)). Details: not given.
Method in brief: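 Membranes from transfected CHO-K1 cells expressing the human receptor subtype, incubated 30 min at 37 °C with 0.05 nM [125I]Tyr11-SRIF in 50 mM HEPES pH 7.4 with BSA, MgCl2, Trasylol, bacitracin and PMSF. Binding was stopped by filtration on PEI-soaked GF/C filters. Nonspecific binding was taken with 1.0 μM SRIF. Kd came from concentration-dependent displacement, given as mean ± SEM or a single experiment.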

Structure (SMILES) | Kd
CN[C@@H](Cc1ccc(O)cc1)C(=O)N[C@H]1CSSC[C@@H](C(=O)N[C@H](C(N)=O)[C@@H](C)O)NC(=O)[C@H]([C@@H](C)O)NC(=O)[C@H](CCCCN)NC(=O)[C@@H](Cc2c[nH]c3ccccc23)NC(=O)[C@H](Cc2ccccc2)NC1=O | 3.01 nM
